Experimental data reported in patent US20240141294A1, “CGMP COMPLIANT PRODUCTION AND EXPANSION OF PLASMACYTOID DENDRITIC CELLS FROM HEMATOPOIETIC STEM AND PROGENITOR CELLS” (AARHUS UNIVERSITET, priority 2021, published 2024).

Tested on: Cord-blood derived CD34+HSPCs
Test: SR1/IL-3 deprivation during final 3 days of HSPC-pDC differentiation: cell growth and viability
Type: cell-based, human
Experimental: Cord-blood derived CD34+HSPCs were cultured in GMP DC media (CellGenix®) supplemented with the cytokines and growth factors Flt3-L (100 ng/mL), SCG (100 ng/mL), TPO (50 ng/mL), IL-3 (20 ng/mL) (Peprotech). In addition, 1 μM of the small molecule inhibitor StemRegenin 1 (SR1, STEMCELL Technologies), 20 μg/mL streptomycin and 20 U/mL penicillin (Gibco, Life Technologies) and 50 μg/mL of ascorbic acid (Sigma Aldrich) was added. Cells were cultured at 37° C., 95% humidity, and 5% CO2 for 17 days, medium was replenished every 2-4 day. The last 3 days, ie. from day 14-17, the culture was split in 4 equal parts. One kept in the same media as previously described, one kept in media without SR1, one kept in media without IL-3 and the last kept in media without both SR1 and IL-3. Viability and total cell numbers during expansion and differentiation of HSPCs was determined using a TC20 Automated Cell Counter (Bio-Rad).

B1: IL-3: cytokine supplement (Peprotech), 20 ng/mL (protein, UniProt P08700 20-152, looked up)
Interleukin-3: APMTQTTPLKTSWVNCSNMIDEIITHLKQPPLPLLDFNNLNGEDQDILMENNLRRPNLEAFNRAVKSLQNASAIESILKNLLPCLPLATAAPTRHPIHIKDGDWNEFRRKLTFYLKTLENAQAQQTTLSLAIF
fold change in number of cells in culture after the 3 days (named supplement removed day 14-17, standard condition 2.31 (±0.49)): 1.85 (±0.40)
difference in the number of cells in culture between day 14 and 17 (named supplement removed from media day 14-17, standard condition 22.5×10^6 (±2.15×10^6)): 13.7×10^6 (±3.08×10^6) cells
